Test results: PMC9032693, “Biological Evaluation of New Thienopyridinium and Thienopyrimidinium Derivatives as Human Choline Kinase Inhibitors” (Pharmaceutics, 2022)

Protein sequences, listed by entry. Tags and fused reporters are not part of them. Residues count along the entry.
UniProt P35790, 75-457 limits assumed: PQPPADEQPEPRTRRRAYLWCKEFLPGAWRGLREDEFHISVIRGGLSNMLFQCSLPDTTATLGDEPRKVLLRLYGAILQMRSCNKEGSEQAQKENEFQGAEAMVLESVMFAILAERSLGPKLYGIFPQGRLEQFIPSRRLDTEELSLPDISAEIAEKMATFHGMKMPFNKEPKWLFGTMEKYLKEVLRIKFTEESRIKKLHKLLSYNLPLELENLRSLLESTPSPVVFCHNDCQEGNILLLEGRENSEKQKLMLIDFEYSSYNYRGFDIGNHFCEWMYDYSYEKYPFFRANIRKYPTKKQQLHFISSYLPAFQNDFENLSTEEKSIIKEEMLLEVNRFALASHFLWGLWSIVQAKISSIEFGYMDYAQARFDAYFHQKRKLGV

Columns and labels:
CKα1 = CKα1 (Homo sapiens, UniProt P35790); assay: Choline kinase assay ([methyl-14C]choline into PCho, purified enzyme); format: biochemical; settings: tested form: bromide; for % Inhibition at 10 µM: purified CKα1, inhibitor 10 µM; for % Inhibition at 10 µM / % Inhibition at 30 µM: end-point assay; for % Inhibition at 30 µM: purified CKα1, inhibitor 30 µM; for IC50: read-out: IC50 CKα, concentration required to inhibit CKα1 enzyme by 50%
A549 = assay: Antiproliferative activity, resazurin assay, 72 h; settings: read-out: GI50 A549, tested form: bromide
HL-60 = assay: Antiproliferative activity, resazurin assay, 72 h; settings: read-out: GI50 HL-60, tested form: bromide
HT29 = assay: Antiproliferative activity, resazurin assay, 72 h; settings: read-out: GI50 HT29, tested form: bromide
HeLa = assay: Antiproliferative activity, resazurin assay, 72 h; settings: read-out: GI50 HeLa, tested form: bromide
Jurkat = assay: Antiproliferative activity, resazurin assay, 72 h; settings: read-out: GI50 Jurkat, tested form: bromide
MDA-MB-231 = assay: Antiproliferative activity, resazurin assay, 72 h; settings: read-out: GI50 MDA-MB-231, tested form: bromide
RS 4;11 = assay: Antiproliferative activity, resazurin assay, 72 h; settings: read-out: GI50 RS 4;11, tested form: bromide
SEM cells = assay: Antiproliferative activity, resazurin assay, 72 h; settings: read-out: GI50 SEM, tested form: bromide
HepG2 cells = assay: Choline uptake assay ([methyl-14C]choline); settings: HepG2, 24 h, tested form: bromide

SMILES | % Inhibition at 10 µM (CKα1) | % Inhibition at 30 µM (CKα1) | IC50 (CKα1) | GI50 (A549) | GI50 (HL-60) | GI50 (HT29) | GI50 (HeLa) | GI50 (Jurkat) | GI50 (MDA-MB-231) | GI50 (RS 4;11) | GI50 (SEM cells) | % Inhibition Choline Uptake at 1 μM (HepG2 cells; 1 μM) | % Inhibition Choline Uptake at 10 μM (HepG2 cells; 10 μM)
c1ccc(-c2ccc(C[n+]3ccc(N4CCCC4)c4sccc43)cc2)cc1 | 30.24% | 35.06% | ≥ 50000 nM | 3500 nM | 130 nM | 400 nM | 380 nM | 2400 nM | 810 nM | 560 nM | 960 nM |  | 
c1ccc(-c2ccc(C[n+]3cnc(N4CCCC4)c4ccsc43)cc2)cc1 | 34.42% | 37.94% | ≥ 50000 nM |  |  |  |  |  |  |  |  |  | 
c1ccc(-c2ccc(C[n+]3cnc(N4CCCC4)c4sccc43)cc2)cc1 | 34.59% | 31.68% | ≥ 50000 nM | 390 nM | 150 nM | 580 nM | 410 nM | 4240 nM | 620 nM | 680 nM | 1470 nM | 49.93 ± 1.72% | 85.12 ± 1.35%
